System: CCRF-CEM
Test: Cytotoxicity against human CEM cells
Assay type: cell-based

C[C@H](NP(=O)(Nc1ccn([C@H]2CS[C@@H](COP(=O)(N[C@@H](C)C(=O)OCc3ccccc3)N[C@@H](C)C(=O)OCc3ccccc3)O2)c(=O)n1)N[C@@H](C)C(=O)OCc1ccccc1)C(=O)OCc1ccccc1
CC50: > 250 µM

C[C@H](NP(=O)(Nc1ccn([C@H]2CS[C@@H](CO)O2)c(=O)n1)N[C@@H](C)C(=O)OCc1ccccc1)C(=O)OCc1ccccc1
CC50: 214 µM

Source: ChEMBL document CHEMBL3085645, “Design, synthesis and biological evaluation of phosphorodiamidate prodrugs of antiviral and anticancer nucleosides” (Eur J Med Chem, 2013)
